Data from patent publication US6506381B1, “Modified red blood cell that has surface molecules that neutralize chemical agents” (dated 2003).

What was measured:
B. subtilis = assay: killing of bacteria by addition of hemin; conditions: oxygen required
[1] = system: other gram positive bacteria; assay: killing of bacteria by addition of hemin; conditions: oxygen required
bacteria = assay: bacteriocidal effect of hemin and analogues, bacteria not specified; conditions: bacteriocidal quantities, absence of oxygen

hemin
killing of bacteria (B. subtilis): has been demonstrated | killing of bacteria [1]: has been demonstrated | damage to bacteria (bacteria): did not damage bacteria
